Sequences of proteins named here, by UniProt entry; tags and fusion partners are left off.
UniProt P31652, whole entry: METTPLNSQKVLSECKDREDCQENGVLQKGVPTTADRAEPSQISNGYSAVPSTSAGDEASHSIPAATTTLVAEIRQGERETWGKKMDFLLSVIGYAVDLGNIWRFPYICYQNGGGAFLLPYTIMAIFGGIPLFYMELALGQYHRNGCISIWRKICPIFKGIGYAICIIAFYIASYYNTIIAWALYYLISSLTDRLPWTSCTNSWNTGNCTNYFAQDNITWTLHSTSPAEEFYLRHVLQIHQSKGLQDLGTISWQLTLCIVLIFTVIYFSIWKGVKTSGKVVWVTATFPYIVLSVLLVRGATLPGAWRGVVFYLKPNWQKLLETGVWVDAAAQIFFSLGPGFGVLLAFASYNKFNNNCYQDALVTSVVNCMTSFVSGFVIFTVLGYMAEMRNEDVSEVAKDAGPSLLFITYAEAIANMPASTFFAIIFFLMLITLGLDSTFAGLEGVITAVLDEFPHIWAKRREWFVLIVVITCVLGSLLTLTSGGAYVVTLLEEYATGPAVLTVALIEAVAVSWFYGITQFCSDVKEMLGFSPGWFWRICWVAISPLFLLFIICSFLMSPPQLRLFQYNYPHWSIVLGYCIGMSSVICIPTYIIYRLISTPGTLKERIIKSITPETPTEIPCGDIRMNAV

In ChEMBL document CHEMBL1146661, “The effect of 6-substituted-4',4"-difluorobenztropines on monoamine transporters and the muscarinic M1 receptor” (Bioorg Med Chem Lett, 2004):

Biological target: Sodium-dependent serotonin transporter (Rattus norvegicus, UniProt P31652)
Experiment: Displacement of [3H]-citalopram from serotonin transporter of rat brain membrane
Format: tissue-based

`COC(=O)[C@@H]1C2CC[C@@H](C[C@@H]1OC(=O)c1ccccc1)N2C` (single isomer, unassigned) [COCAINE] showed a pKi of 6.53.

pKi: −log10 of the molar value.
